## Antibody variant affinities, Ab-95 light chain, assay 2

All variants were tested on one target, the spike HR2 peptide PDVDLGDISGINAS (SARS-CoV-2).

Parent scFv Ab-95: VH joined to VL by three GGGGS repeats. Changes lie in the light chain CDRs alone.
VH: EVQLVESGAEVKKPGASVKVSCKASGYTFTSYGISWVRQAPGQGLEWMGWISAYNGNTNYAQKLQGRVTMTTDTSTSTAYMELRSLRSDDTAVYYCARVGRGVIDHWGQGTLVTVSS
VL: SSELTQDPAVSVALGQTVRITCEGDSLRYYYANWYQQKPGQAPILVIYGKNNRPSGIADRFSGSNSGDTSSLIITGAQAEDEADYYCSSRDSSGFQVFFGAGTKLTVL

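Phage display of a naive human antibody library on the peptide gave the parent. Library AAYL52 holds single substitutions and randomly drawn double and triple substitutions in the CDRs. The assay is AlphaSeq: two haploid yeast populations carry antibody and antigen on their surface. The frequency of each diploid, read from paired DNA barcodes, reflects how well the two displayed proteins bind. Read counts were normalised to the haploid input and turned into Kd by a linear fit to BCL2-family pairs of known affinity, for each replicate. There are three technical replicates.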

The parent's light chain CDRs are EGDSLRYYYAN, GKNNRPS, SSRDSSGFQVF; each variant's own CDRs replace them letter for letter. Affinities are written as log10 Kd with Kd in nM; a lower number is a better binder. An entry "ND" has no value in the source: the pair was not observed among the diploids in that replicate. This suggests poor binding but is not conclusive. As a blank, each scFv also met three strains without target: over library AAYL52, 28% of these pairings were detected, typically at 3.91 and seldom below 2.90. For each scFv, signals with the empty controls are counted beside the result, with their mean in brackets.

CDR-L1,CDR-L2,CDR-L3,log10 Kd (nM) by replicate,empty controls
EGDSLRWYYAN,GKNNRPS,SSRESSGFNVF,2.53 ND 2.26,1/9 (3.65)
EGDSLRYYYAN,GKNNYMS,SSRDSSGFQFF,ND ND ND,0/9
EGDSLRYYYAN,GKNNNPS,SSRDSKGFQVF,ND 3.43 2.86,3/9 (3.75)
EGDSLRYYYAE,GKGNRPS,QSRDSSGFQVF,ND ND ND,1/9 (4.32)
EGDDLRYYYAN,GVNNRPS,SSRNSSGFQVF,3.35 3.98 ND,3/9 (3.59)
EGDPLRYYYAN,GKNNVPS,LSRDSSGFQVF,ND ND 4.13,2/9 (4.18)
EGDSLRYYQAN,GKNNECS,SSRDSSGFQVF,4.87 2.67 4.33,3/9 (3.40)
EGDSLRYYYNN,GKNNQPS,SSRDSSGFQVF,2.93 2.79 2.22,4/9 (4.45)
EMDSLRYYYAN,GKYNRPS,SSRDSSGFQVQ,ND 4.42 ND,1/9 (3.67)
EGDSLRYYYAR,GKNNRMS,SSCDSSGFQVF,ND ND ND,1/9 (4.86)
EGDSLRYYVAG,GKNNRPS,SSRDSSGFQVR,ND ND 3.58,1/9 (3.42)
EGDSLRYYYAA,GKNNRPQ,SSRDSSGDQVF,3.08 3.48 4.42,1/9 (4.59)
AGDMLRYYYAN,GKNNRES,SSRDSSGFQVF,3.68 3.80 3.55,2/9 (4.00)
EGDALRYYYAN,GKNNRPD,SIRDSSGFQVF,3.37 2.74 3.33,3/9 (4.05)
EGDSLRYLYAN,GKNNRPS,TSRDMSGFQVF,3.03 2.78 3.20,3/9 (3.82)
ECDSLRYAYAN,GKNNRPY,SSRDSSGFQVF,3.06 2.84 2.65,1/9 (3.69)
ETDSLRYYYAN,GKYNRPS,NSRDSSGFQVF,3.30 3.82 ND,3/9 (4.47)
EGCSCRLYYAN,GKNNRPS,SSRDSSGFQVF,3.67 4.25 3.75,4/9 (4.81)
EGDSLRYYYWN,GKNNRPS,SSRDRSGFQVN,3.59 4.97 1.71,2/9 (2.75)
EMDSLRYYYAN,GKNHRPS,SSRDSSGFQVF,4.26 5.52 ND,5/9 (3.84)
EGDSLRYYYAN,GKNNRPS,SSRDSSGESVF,4.72 2.66 3.71,2/9 (2.63)
ENDSWRYYYAN,GKNNRPS,SSRDSLGFQVF,3.37 4.16 ND,1/9 (4.45)
EGDSLRTYYAN,GKNNRPS,SSHASSGFQVF,1.82 1.91 1.62,4/9 (4.12)
EGDSLRYYYAN,GKNFKPS,SSRDWSGFQVF,2.08 2.10 1.52,3/9 (3.73)
EGDSLRYYYAC,GKNHRPS,SFRDSSGFQVF,3.37 ND ND,2/9 (3.60)
EGDSLRYYYAD,GKNNRPW,SSQDSSGFQVF,ND ND 4.19,5/9 (4.07)
EGDSLLYYDAN,GKNNRPS,SSRDSSGFQVT,ND ND ND,0/9
EGDSLRYYYAN,GKNERPS,SSRDSSGFQAF,2.17 2.28 2.66,3/9 (4.70)
EGDYLRYYYAD,FKNNRPS,SSRDSSGFQVF,4.25 5.75 ND,6/9 (3.89)
EGDSLQYYYAN,GKNNRIS,SDRDSSGFQVF,4.40 ND ND,3/9 (4.10)
EGDSLRYYYAN,GVNNRPS,SSRGSRGFQVF,3.63 3.12 3.72,7/9 (4.08)
EGDSLRYYYAN,GKNNRPS,SSRDSSGFQVM,3.64 3.16 2.85,3/9 (3.49)
EGDSLRYYYAN,GKNNRPS,SSRDTSGFQVF,2.30 2.63 1.94,4/9 (3.93)
EGYSLRYYYAN,GKNNRPS,STRVSSGFQVF,3.74 2.69 1.91,3/9 (3.42)
EGDSLGYYYAN,GKNNWPS,SSRDSSGFQVF,ND 4.09 ND,1/9 (3.85)
EGYSLRYYYDN,GKQNRPS,SSRDSSGFQVF,3.25 3.89 2.53,2/9 (4.28)
WGDSLRYQYAN,NKNNRPS,SSRDSSGFQVF,1.97 1.87 1.81,1/9 (3.32)
EGDSLRNYYHN,GKNNRPS,SSRDSSAFQVF,ND ND ND,3/9 (4.16)

The 3 strongest on average among those seen in every replicate, once more:

{"CDR-L1": "EGDSLRTYYAN", "CDR-L2": "GKNNRPS", "CDR-L3": "SSHASSGFQVF", "log10 Kd (nM) by replicate": "1.82 1.91 1.62", "empty controls": "4/9 (4.12)"}
{"CDR-L1": "WGDSLRYQYAN", "CDR-L2": "NKNNRPS", "CDR-L3": "SSRDSSGFQVF", "log10 Kd (nM) by replicate": "1.97 1.87 1.81", "empty controls": "1/9 (3.32)"}
{"CDR-L1": "EGDSLRYYYAN", "CDR-L2": "GKNFKPS", "CDR-L3": "SSRDWSGFQVF", "log10 Kd (nM) by replicate": "2.08 2.10 1.52", "empty controls": "3/9 (3.73)"}

From the AlphaSeq antibody data of Engelhart et al. 2022 (doi:10.1038/s41597-022-01779-4), copy in the FLAb collection.